Measured values taken from patent publication US20210187115A1, “Immunoconjugates Targeting EGFR” (Bolt Biotherapeutics, Inc., priority 2018, published 2021).

Test system: COLO 205 tumor cells
Assay: humanized mouse model with COLO 205 colorectal tumor xenograft and human PBMCs
Assay type: in vivo
Details: COLO 205 xenograft admixed with NK-depleted human PBMCs in immunodeficient mice; systemic treatment started 4 days after inoculation; FIG. 1
Protocol: This example employed a humanized mouse model, in which immunodeficient mice are simultaneously engrafted with human peripheral blood mononuclear cells (“PBMCs”) and a human tumor xenograft. PBMCs from healthy donors were isolated and depleted of NK cells. A human tumor model for colorectal cancer, COLO 205, was utilized, as this tumor is known to highly express the tumor antigen EGFR, enabling the use of the clinical monoclonal antibody cetuximab. The COLO 205 tumor cells were prepared as follows.
The COLO 205 tumor cells were maintained in vitro in RPMI-1640 medium supplemented with 10% fetal bovine serum at 37° C. in an atmosphere of 5% CO2 in air. The cells in exponential growth phase were harvested and quantitated by cell counter before tumor inoculation.
PBMCs were isolated from blood of two healthy donors by density gradient centrifugation using standard procedures. […]
Tumor volumes were measured twice per week after randomization in two dimensions using a caliper, and the volume was expressed in mm^3 using the formula: “V=(L×W×W)/2, where V is tumor volume, L is tumor length (the longest tumor dimension) and W is tumor width (the longest tumor dimension perpendicular to L). […] The body weights and tumor volumes were calculated using STUDYDIRECTOR™ software (version 3.1.399.19).

How did the “tumor volume (control of tumor growth)” value turn out when cetuximab was run?
The value was “not sufficient for control of tumor growth”.
